The test system of this assay is multiple AML cell strains. The experiment in a line: CD33 cell killing experiment, conclusion over the cell models. It counts as cell-based, Human. Particulars: in words; CD33 high-expression, moderate-expression and negative cell lines. The protocol:
Pharmacodynamic test at cellular level: cell plating was performed on a 96-well plate in a certain density. After the cells adhered to the wall (usually taking at least 4 h), a series of drugs in several folds of dilution were added to each well plate to act for a certain period of time, for killing the cells. At the end of action of the drugs, a certain amount of MTS was added to react at 37° C. under 5% CO2 for 1-4 h. After color development using the MTS reagent, the OD 490 nm absorbance value was detected using a microplate reader, and then the IC50 for cell killing was analyzed and calculated.
• 1) Cell revival: after preheating in a 37° C.′ water bath, 9 mL of the culture medium was taken and put in a centrifuge tube for later use; the cells were taken out from liquid nitrogen, immediately quickly shaked at 37° C.′ to fully thaw, then transferred into the centrifuge tube, and centrifuged at 1000 rpm for 3 min at room temperature: the supernatant was discarded, and the precipitate was re-suspended with 1 mL of complete culture medium, where the process should be gentle, to prevent bubbles from being blown out, thereby reducing damage to the cells; the cells were transferred into a culture flask, and cultivated in a cell incubator at 37° C., 5% CO2 and 95% relative humidity. […]

B1: ANTI-CD33-R01-1 (2) - Ex01 (8) (conjugate)
light: DIQLTQSPSTLSASVGDRVTITCRASESLDNYGIRFLTWFQQKPGKAPKLLMYAASNQGSGVPSRFSGSGSGTEFTLTISSLQPDDFATYYCQQTKEVPWSFGQGTKVEVKRTVAAPSVFIFPPSDEQLKSGTASVVCLLNNFYPREAKVQWKVDNALQSGNSQESVTEQDSKDSTYSLSSTLTLSKADYEKHKVYACEVTHQGLSSPVCTKSFNRGEC
heavy: EVQLVQSGAEVKKPGSSVKVSCKASGYTITDSNIHWVRQAPGQSLEWIGYIYPYNGGTDYNQKFKNRATLTVDNPTNTAYMELSSLRSEDTAFYYCVNGNPWLAYWGQGTLVTVSSASTKGPSVFPLAPSSKSTSGGTAALGCLVKDYFPEPVTVSWNSGALTSGVHTFPAVLQSSGLYSLSSVVTVPSSSLGTQTYICNVNHKPSNTKVDKRV[human IgG1 Fc not spelt out]
Consider B1, for which the “in vitro sensitivity of the multiple AML tumor cell strains, compared with mono-drug ADC ANTI-CD33-Ex01 (10)” value is “significantly better in vitro sensitivity”.

Values taken from patent US20260137794A1, “LIGAND-DRUG CONJUGATE AND USE THEREOF” (SYSTIMMUNE, INC., priority 2022, published 2026).
